{
  "source": "patent US9192567B2",
  "about": "“Method for treating eye disease or conditions affecting the posterior segment of the eye” (SANTEN SAS, priority 2006, dated 2015)",
  "experiment": "Intraocular pharmacokinetics of dexamethasone palmitate and dexamethasone following intravitreal administration",
  "conditions": "for DP/D ratio in choroid / DP/D ratio in retina: single intravitreal injection of 0.8% dexamethasone palmitate emulsion",
  "from_the_text": "Analytes and internal standard (roxithromycine) were extracted from the tissues using acetonitrile and separated by reverse phase liquid chromatography with a C8 column and a gradient mobile phase. […] The unweighed linear model was applied.\nAll concentrations are expressed in ng/g.",
  "key": {"[1]": {"conditions": "rabbit, single intravitreal injection 100 uL of 0.8% dexamethasone palmitate emulsion (800 ug), Day 60"}},
  "data": [
    {"substance": "dexamethasone palmitate [DP]", "values": [
      {"measurement": "amount of prodrug remaining in retina and choroid", "setting": "following IVT injection of 800 ug of prodrug, 2 months", "result": "considerable amounts"},
      {"measurement": "Concentration in retina, Mean", "setting": "rabbit, single intravitreal injection 100 uL of 0.8% dexamethasone palmitate emulsion (800 ug), Day 7", "result": 93, "unit": "nmol/g"},
      {"measurement": "Concentration in choroid, Mean", "setting": "rabbit, single intravitreal injection 100 uL of 0.8% dexamethasone palmitate emulsion (800 ug), Day 14", "result": 22, "unit": "nmol/g"},
      {"measurement": "Concentration in aqueous humor, Mean", "setting": "[1]", "result": 0, "unit": "nmol/g"},
      {"measurement": "Concentration in choroid, Mean", "setting": "[1]", "result": 52, "unit": "nmol/g"},
      {"measurement": "Concentration in retina, Mean", "setting": "[1]", "result": 55, "unit": "nmol/g"},
      {"measurement": "DP/D ratio in choroid", "setting": "rabbit, Day 1", "result": 15.91},
      {"measurement": "DP/D ratio in retina", "setting": "rabbit, Day 1", "result": 15.14},
      {"measurement": "DP/D ratio in choroid", "setting": "rabbit, Day 7", "result": 8.58},
      {"measurement": "DP/D ratio in retina", "setting": "rabbit, Day 7", "result": 8.45},
      {"measurement": "DP/D ratio in choroid", "setting": "rabbit, Day 14", "result": 2.44},
      {"measurement": "DP/D ratio in retina", "setting": "rabbit, Day 14", "result": 22.6},
      {"measurement": "DP/D ratio in choroid", "setting": "rabbit, Day 28", "result": 35.65},
      {"measurement": "DP/D ratio in retina", "setting": "rabbit, Day 28", "result": 36.5},
      {"measurement": "DP/D ratio in choroid", "setting": "rabbit, Day 60", "result": 17.33},
      {"measurement": "DP/D ratio in retina", "setting": "rabbit, Day 60", "result": 25}
    ]}
  ]
}
